Measured values: ChEMBL document CHEMBL1914429, “Potent and selective 2-naphthylsulfonamide substituted hydroxamic acid inhibitors of matrix metalloproteinase-13” (Bioorg Med Chem Lett, 2011)
pIC50: −log10 of the molar value.

By UniProt entry, the sequences of proteins in these tests, tags left out. Where a name states a change or a piece, a line headed by the entry shows the natural chain unless it says otherwise.
UniProt P08253: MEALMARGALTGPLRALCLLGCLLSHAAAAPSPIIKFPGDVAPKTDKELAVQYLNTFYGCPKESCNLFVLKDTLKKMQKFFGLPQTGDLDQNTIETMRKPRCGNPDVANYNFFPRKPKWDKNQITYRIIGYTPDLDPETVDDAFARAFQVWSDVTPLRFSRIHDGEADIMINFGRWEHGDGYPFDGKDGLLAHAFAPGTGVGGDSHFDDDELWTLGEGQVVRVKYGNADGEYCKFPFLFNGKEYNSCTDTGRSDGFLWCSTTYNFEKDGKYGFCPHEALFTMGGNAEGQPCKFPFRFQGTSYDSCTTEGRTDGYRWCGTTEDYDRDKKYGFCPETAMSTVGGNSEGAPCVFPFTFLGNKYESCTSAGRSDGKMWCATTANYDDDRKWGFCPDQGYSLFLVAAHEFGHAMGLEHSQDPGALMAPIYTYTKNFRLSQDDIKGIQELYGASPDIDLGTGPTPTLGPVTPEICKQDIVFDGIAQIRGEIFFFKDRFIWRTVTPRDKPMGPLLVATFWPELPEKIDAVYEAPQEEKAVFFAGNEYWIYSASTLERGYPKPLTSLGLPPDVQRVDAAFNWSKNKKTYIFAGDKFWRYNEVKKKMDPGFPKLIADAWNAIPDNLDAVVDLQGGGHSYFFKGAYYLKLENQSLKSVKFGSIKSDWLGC

Target: 72 kDa type IV collagenase (Homo sapiens, UniProt P08253)

pIC50: 7.60
Compound: CC(C)[C@H](C(=O)NO)N(Cc1cccnc1)S(=O)(=O)c1ccc2ccccc2c1
